In this experiment the test system is rats with severe hemorrhagic shock. Kind of experiment: Rodent shock model, acute low volume resuscitation (Example 8). In kind it is in vivo, Sprague Dawley rats. How it is done:
FIG. 10A-D. A) Diagram showing the shock, resuscitation, and recovery protocol used for these studies. The low volume resuscitation (LVR) time is the time from the start of the low volume resuscitation (after the lactate during hemorrhagic shock reaches 9-10 mM) until the time after the LVR infusion when the lactate rises back up to 9-10 mM again. This immediately precedes full resuscitation. The LVR time is a measure of the tolerance to the low volume state and is a function of the microcirculatory effectiveness since it is dependent on the rate of change of the plasma lactate. […] C) Mean Arterial (blood) Pressure (MAP) measured at 15 min, 30 min, and at the end of the low volume resuscitation period for (6) groups of rats treated with various amounts of PEG-20k, Albumin, Hextend, or Saline as the low volume resuscitation solution. * P<0.05 relative to the other corresponding groups, # P<0.05 relative to all other corresponding values, n=6-10 per group, all values are mean±SD. D) The oncotic reflection coefficient (σd) for PEG-20k was measured in six rats to determine the impermeant and the oncotic effects of this molecule in both the mesenteric vascular bed and the thoracic bed. […] FITC-labelled PEG-20k was measured by excitation-emission spectrofluorometry. […]

For the substance “albumin: most abundant protein in the blood, classical volume expander, pure oncotic agent”, the “LVR time compared to PEG-20k” value (10% Hextend or 10% albumin) is reported as “significantly lower”. Moreover, the “mean arterial blood pressure during LVR period” value (compared with saline (10%)) was “improved”.

The record behind these values is patent US10300029B2, “Organ protection solutions and method of use” (VIRGINIA COMMONWEALTH UNIVERSITY, priority 2011, dated 2019).
